Reference: patent US9611289B2, “Farnesoid X receptor modulators” (Intercept Pharmaceuticals, Inc., priority 2013, dated 2017)

By UniProt entry, the sequences of proteins in these tests, tags left out.
UniProt P05181, whole entry: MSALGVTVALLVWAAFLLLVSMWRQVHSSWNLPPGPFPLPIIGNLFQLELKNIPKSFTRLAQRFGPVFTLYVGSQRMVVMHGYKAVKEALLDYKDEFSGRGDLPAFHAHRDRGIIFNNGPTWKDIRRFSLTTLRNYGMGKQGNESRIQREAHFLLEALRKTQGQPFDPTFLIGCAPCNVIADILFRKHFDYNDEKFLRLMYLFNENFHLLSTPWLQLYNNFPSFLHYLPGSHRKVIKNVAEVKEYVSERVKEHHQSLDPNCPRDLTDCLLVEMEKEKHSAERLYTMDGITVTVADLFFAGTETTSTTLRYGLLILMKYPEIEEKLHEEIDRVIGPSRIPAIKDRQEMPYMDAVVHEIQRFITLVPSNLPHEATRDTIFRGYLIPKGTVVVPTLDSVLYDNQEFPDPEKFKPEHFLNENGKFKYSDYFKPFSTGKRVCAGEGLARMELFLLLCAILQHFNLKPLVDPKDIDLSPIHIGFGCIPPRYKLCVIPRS

Molecular target: CYP2E1 (Homo sapiens, UniProt P05181)

In the case of `CCN(CC)C(=S)S`, the pIC50 was 6.40.

pIC50: −log10 of the molar value.
